The values that follow are results of earlier work, collected in patent US20230265432A1, “METHODS AND COMPOSITIONS FOR TREATING ACUTE MYELOID LEUKEMIA” (Sanford Burnham Prebys Medical Discovery Institute, priority 2021, published 2023).

Sequences of proteins named here, by UniProt entry; tags and fusion partners are left off.
UniProt Q96GD4, whole entry: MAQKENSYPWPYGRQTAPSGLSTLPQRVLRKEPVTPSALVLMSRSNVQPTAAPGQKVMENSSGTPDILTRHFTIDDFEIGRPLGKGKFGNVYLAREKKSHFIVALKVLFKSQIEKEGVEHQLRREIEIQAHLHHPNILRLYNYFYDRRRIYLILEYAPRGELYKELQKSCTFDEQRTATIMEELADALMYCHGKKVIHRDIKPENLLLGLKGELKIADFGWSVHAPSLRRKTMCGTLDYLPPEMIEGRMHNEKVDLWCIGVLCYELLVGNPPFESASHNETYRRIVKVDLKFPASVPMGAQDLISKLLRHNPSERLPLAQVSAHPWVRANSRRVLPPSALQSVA

Data set [1] has as its target T1, G9a (Homo sapiens, UniProt Q96KQ7).
T1 sequence (Q96KQ7 1-1210): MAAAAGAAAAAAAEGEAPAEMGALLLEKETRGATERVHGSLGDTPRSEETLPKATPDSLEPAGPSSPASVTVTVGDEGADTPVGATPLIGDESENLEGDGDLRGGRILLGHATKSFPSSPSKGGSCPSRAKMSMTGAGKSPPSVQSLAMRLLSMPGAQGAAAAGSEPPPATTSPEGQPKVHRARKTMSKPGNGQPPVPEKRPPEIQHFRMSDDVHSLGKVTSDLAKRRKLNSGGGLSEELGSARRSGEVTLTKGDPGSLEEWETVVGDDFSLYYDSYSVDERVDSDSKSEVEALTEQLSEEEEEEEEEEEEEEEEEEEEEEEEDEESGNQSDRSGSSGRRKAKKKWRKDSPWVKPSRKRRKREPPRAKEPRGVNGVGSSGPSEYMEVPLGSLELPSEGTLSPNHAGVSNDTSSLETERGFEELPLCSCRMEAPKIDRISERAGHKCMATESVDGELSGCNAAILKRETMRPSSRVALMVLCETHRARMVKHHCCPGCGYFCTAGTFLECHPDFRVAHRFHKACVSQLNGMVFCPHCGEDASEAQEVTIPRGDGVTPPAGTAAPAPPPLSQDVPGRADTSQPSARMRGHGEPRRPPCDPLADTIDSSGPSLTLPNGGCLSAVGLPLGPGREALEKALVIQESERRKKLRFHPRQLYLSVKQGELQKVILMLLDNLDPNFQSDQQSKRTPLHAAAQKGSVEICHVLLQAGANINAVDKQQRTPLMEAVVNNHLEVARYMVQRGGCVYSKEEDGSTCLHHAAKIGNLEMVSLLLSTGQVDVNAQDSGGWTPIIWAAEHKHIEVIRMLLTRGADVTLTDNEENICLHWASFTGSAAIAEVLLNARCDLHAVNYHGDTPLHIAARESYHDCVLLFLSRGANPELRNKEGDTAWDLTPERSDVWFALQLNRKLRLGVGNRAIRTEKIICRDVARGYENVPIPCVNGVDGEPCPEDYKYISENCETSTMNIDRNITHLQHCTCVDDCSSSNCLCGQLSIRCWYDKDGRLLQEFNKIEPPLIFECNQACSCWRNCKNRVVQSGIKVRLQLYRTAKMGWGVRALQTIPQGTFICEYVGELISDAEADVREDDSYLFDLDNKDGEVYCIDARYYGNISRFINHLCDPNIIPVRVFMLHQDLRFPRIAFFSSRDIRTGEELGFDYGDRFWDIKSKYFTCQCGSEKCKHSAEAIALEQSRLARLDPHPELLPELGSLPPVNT
Conditions: cited from earlier work.

In data set [2] the target is Aurora B (Homo sapiens, UniProt Q96GD4). Conditions: cited from earlier work.

One may read the IC50 as the concentration needed to halve the response being measured. In the case of `COc1cc2c(NC3CCN(C)CC3)nc(N3CCCN(C)CC3)nc2cc1OCCCN(C)C` [UNC0224], in data set [1], the IC50 was 15 nM; the “fold selective for G9a over SET7/9 and SET8” value is given as > 1,000 fold. Consider `Cc1cc(Nc2nn(-c3ccccc3)c(=O)c3ccccc23)n[nH]1`, for which the “does not inhibit at doses up to” value in data set [2] was “inhibit Aurora B kinase at doses up to 100 μM; inhibits the”.
